For 3 molecules, IC50 results are on record in US20130136691A1 (BRACCO IMAGING S P A, published 2013).

The chains behind the UniProt entries cited, without tags or fusion partners. Where a name states a change or a piece, a line headed by the entry shows the natural chain unless it says otherwise.
UniProt P30550: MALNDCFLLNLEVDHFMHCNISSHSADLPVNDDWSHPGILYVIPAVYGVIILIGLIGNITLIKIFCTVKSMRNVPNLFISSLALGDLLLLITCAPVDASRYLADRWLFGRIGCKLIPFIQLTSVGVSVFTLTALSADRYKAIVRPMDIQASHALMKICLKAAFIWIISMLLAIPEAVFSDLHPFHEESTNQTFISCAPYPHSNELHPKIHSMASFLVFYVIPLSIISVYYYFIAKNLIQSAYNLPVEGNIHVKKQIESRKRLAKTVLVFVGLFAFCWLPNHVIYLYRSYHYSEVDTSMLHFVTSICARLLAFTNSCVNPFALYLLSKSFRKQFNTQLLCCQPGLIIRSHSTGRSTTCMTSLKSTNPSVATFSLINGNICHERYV

The target of test [1] is T1, gastrin releasing peptide receptor (GRP-R) (human, UniProt P30550 1-384).
T1 construct: whole, on cells; also called GRP receptor; BB2
As to the kind of experiment: 125I-BBN competition, PC3 cells.

Test [2] has as its target T2, neuromedin-B preferring receptor (NMB-R) on C6 rodent glioblastoma cells (rodent, UniProt P24053 1-390, limits assumed).
T2 construct: whole, on cells; also called C6/NMB-R
T2 sequence (looked up): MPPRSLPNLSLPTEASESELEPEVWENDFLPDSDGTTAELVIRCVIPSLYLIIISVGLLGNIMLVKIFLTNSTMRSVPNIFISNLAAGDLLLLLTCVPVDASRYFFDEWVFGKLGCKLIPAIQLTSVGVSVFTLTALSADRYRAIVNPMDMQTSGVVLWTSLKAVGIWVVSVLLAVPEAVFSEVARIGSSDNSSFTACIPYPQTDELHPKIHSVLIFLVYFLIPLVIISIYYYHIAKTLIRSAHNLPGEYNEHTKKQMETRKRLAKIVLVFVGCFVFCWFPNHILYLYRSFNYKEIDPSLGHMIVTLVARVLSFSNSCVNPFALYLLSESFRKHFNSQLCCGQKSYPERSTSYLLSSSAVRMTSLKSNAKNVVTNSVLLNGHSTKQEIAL
The test is described as follows: 125I-NMB competition, C6 cells.

B1: L218 (peptide)
peptide: LGNQWAVGHLM
modifications: N-term: pGlu-Gln-Lys(DO3A-monoamide-Gly-4-aminobenzoic acid on the Lys side chain); C-term amide
For B1, the 50% inhibitory concentration (IC50) in test [1] came out at 53 nM.

B2: L219 (peptide)
peptide: QWAVGHL
modifications: N-term: DO3A-monoamide-Gly-4-aminobenzoic acid-(D)-Phe; C-terminal pentylamide (NH-Pentyl)
notes: also called DO3A-monoamide-Gly-4-aminobenzoic acid-(D)-Phe-QWAVGHL-NH-Pentyl
In test [1], B2 displayed a concentration for half-maximal inhibition (IC50) of 75 nM.

B3: L28 (peptide)
peptide: QWAVGHLM
modifications: N-term: N,N-dimethylglycine-Ser-Cys(Acm)-Gly-N-4-aminoethyl-N-1-piperazineacetic acid-Ser; C-term amide
B3 had a concentration for half-maximal inhibition (IC50) in test [2] of 13 nM.

As usually defined, the IC50 is the concentration that gives 50% inhibition.
